The test system of data set [1] is cysteine peptide Ac-RFAACAA-COOH. Put plainly: efficacy of cysteine peptide change (negative = depletion) (% activity); higher = less depletion. The following applies: incubation time: 24 h.
In data set [2] the test system is KeratinoSens (HaCaT ARE-luciferase) cells. Put plainly: cytotoxicity AC50 (CellTiter-Fluor viability); higher = less cytotoxic. The note with it: exposure time: 24 h.
Data set [3] concerns lysine peptide Ac-RFAAKAA-COOH. The experiment in a line: efficacy of lysine peptide change (negative = depletion) (% activity); higher = less depletion. The following applies: incubation time: 24 h.
Data set [4] deals with cysteine peptide Ac-RFAACAA-COOH. Put plainly: AC50 of cysteine peptide concentration-response (direction given by sign of efficacy); higher = less potent. The following applies: incubation time: 24 h.
For data set [5], the system named is THP-1. The experiment in a line: efficacy of IL-8 induction relative to DMSO (% activity); higher = stronger induction. The note with it: exposure time: 18 h.
Data set [6] has as its system KeratinoSens (HaCaT ARE-luciferase) cells. The experiment in a line: efficacy of ARE luciferase induction relative to DMSO (% activity over DMSO); higher = stronger induction. The following applies: exposure time: 24 h.
Data set [7] concerns THP-1. Put plainly: AC50 of IL-8 secretion induction; higher = less potent. The note with it: exposure time: 18 h.
The subject of data set [8] is KeratinoSens (HaCaT ARE-luciferase) cells. Put plainly: AC50 of Nrf2/ARE luciferase induction; higher = less potent. The following applies: exposure time: 24 h.

The structures appear in SMILES notation. Structures can show the parent of a compound that is named as a salt. ± gives the uncertainty stated by the source.

On to `Oc1ccc(O)cc1` [Hydroquinone], for which the “efficacy of cysteine peptide change” value in data set [1] was -111 ± 8. Further, the “cytotoxicity AC50” value in data set [2] is 48.7 ± 19 µM. In addition, the “efficacy of lysine peptide change” value in data set [3] is -19.3 ± 5.9. The AC50 in data set [4] stood at 17.6 ± 8.3 µM. For the same molecule, in data set [5], the “efficacy of IL-8 induction” value came out at 41.3 ± 19. The “efficacy of ARE luciferase induction” value in data set [6] worked out at 109 ± 270.

As for `CN1CCCN=C1/C=C/c1cccs1` [Pyrantel tartrate], in data set [1], the “efficacy of cysteine peptide change” value is 3.83 ± 6.6. In data set [3], the “efficacy of lysine peptide change” value stood at 61 ± 9.5. Further, the “efficacy of IL-8 induction” value in data set [5] came out at 6.24 ± 6.5. Moreover, the “efficacy of ARE luciferase induction” value in data set [6] stood at 23.7 ± 31.

`CCOC(=O)N1CCC(=C2c3ccc(Cl)cc3CCc3cccnc32)CC1` [Loratadine]: in data set [1], the “efficacy of cysteine peptide change” value amounted to 15 ± 1.3. In data set [3], the “efficacy of lysine peptide change” value was -4.11 ± 17.

With `Oc1cccc2cccnc12` [8-Hydroxyquinoline citrate], the “efficacy of cysteine peptide change” value in data set [1] is -69.7 ± 19. For the same molecule, in data set [2], the “cytotoxicity AC50” value stood at 2.93 ± 0.2 µM. For the same molecule, the “efficacy of lysine peptide change” value in data set [3] is -23.8 ± 16. This molecule displayed an AC50 in data set [4] of 14.9 ± 3.4 µM. In addition, the “efficacy of IL-8 induction” value in data set [5] came to 93 ± 1.8. Besides, the “AC50 of IL-8 secretion induction” value in data set [7] was 4.83 µM. Besides, the “efficacy of ARE luciferase induction” value in data set [6] was -44 ± 5.1.

Take `CCOC(=S)S` [Potassium ethyl xanthate]: the “AC50 of Nrf2/ARE luciferase induction” value in data set [8] came to 63.9 µM. Moreover, the “efficacy of cysteine peptide change” value in data set [1] was -105 ± 10. For the same molecule, in data set [3], the “efficacy of lysine peptide change” value is -9.96 ± 12. Further, the AC50 in data set [4] is 89.5 ± 10 µM. Further, in data set [5], the “efficacy of IL-8 induction” value came to 47.9 ± 18. In addition, in data set [6], the “efficacy of ARE luciferase induction” value amounted to 133 ± 110.

As to `C=C(C)C(=O)[O][Sn]([CH2]CCC)([CH2]CCC)[CH2]CCC` [Tributyltin methacrylate], the “AC50 of Nrf2/ARE luciferase induction” value in data set [8] is 2.74 µM. The “efficacy of cysteine peptide change” value in data set [1] was 123 ± 84. In addition, in data set [2], the “cytotoxicity AC50” value turned out to be 6.13 ± 1 µM. The “efficacy of lysine peptide change” value in data set [3] amounted to 14.7 ± 15. Moreover, the “efficacy of IL-8 induction” value in data set [5] turned out to be 26 ± 2.1. For the same molecule, the “efficacy of ARE luciferase induction” value in data set [6] stood at 118 ± 40.

As for `CN(C)C(=S)[S-].CN(C)C(=S)[S-].[Zn+2]` [Ziram], the “efficacy of cysteine peptide change” value in data set [1] is -44.2 ± 10. For the same molecule, in data set [2], the “cytotoxicity AC50” value is 4.14 ± 0.28 µM. Besides, the “efficacy of lysine peptide change” value in data set [3] was -5.71 ± 9.9. Further, the AC50 in data set [4] was found to be 34 ± 23 µM. Also, in data set [5], the “efficacy of IL-8 induction” value is 96.2 ± 15. Further, the “AC50 of IL-8 secretion induction” value in data set [7] was 5.44 µM. Further, the “efficacy of ARE luciferase induction” value in data set [6] was -34.2 ± 4.8.

As to `CC(O)C(=O)[O][Hg][c]1ccccc1` (stereo not given) [Phenylmercuric lactate], the “cytotoxicity AC50” value in data set [2] worked out at 18 ± 3.8 µM. The “efficacy of IL-8 induction” value in data set [5] amounted to 22.2 ± 4. Further, in data set [6], the “efficacy of ARE luciferase induction” value came out at 30.5 ± 52.

As for `CC(=O)[O-].CC(=O)[O-].[Hg+2]` [Mercury(II) acetate], the “efficacy of cysteine peptide change” value in data set [1] is -98.1 ± 11. In addition, the “cytotoxicity AC50” value in data set [2] was found to be 4.92 ± 1.2 µM. Also, the “efficacy of lysine peptide change” value in data set [3] was -21 ± 8.9. The AC50 in data set [4] was found to be 7.43 ± 2.6 µM. For the same molecule, in data set [5], the “efficacy of IL-8 induction” value was found to be 17.6 ± 5.9. Moreover, the “efficacy of ARE luciferase induction” value in data set [6] worked out at 175 ± 300.

Consider `C=CC(=O)OCCOc1ccccc1` [2-Phenoxyethyl acrylate], for which the “AC50 of Nrf2/ARE luciferase induction” value in data set [8] amounted to 50.1 µM. The “efficacy of cysteine peptide change” value in data set [1] is -106 ± 3. Further, the “cytotoxicity AC50” value in data set [2] worked out at 55.2 ± 14 µM. The “efficacy of lysine peptide change” value in data set [3] amounted to 14.4 ± 6.6. The AC50 in data set [4] worked out at 48.3 ± 3.1 µM. In addition, the “efficacy of IL-8 induction” value in data set [5] came out at 15 ± 7.2. Besides, in data set [6], the “efficacy of ARE luciferase induction” value came out at 92.8 ± 52.

`C=CC(=O)OCC(CC)CCCC` (stereo not given) [2-Ethylhexyl acrylate]: the “efficacy of cysteine peptide change” value in data set [1] is 6 ± 10. In data set [3], the “efficacy of lysine peptide change” value is -14.6 ± 7.2. Further, the “efficacy of IL-8 induction” value in data set [5] was -2.33 ± 4. For the same molecule, the “efficacy of ARE luciferase induction” value in data set [6] was -6.31 ± 8.9.

For `O=[N+]([O-])[O-].[K+]` [Potassium nitrate], the “efficacy of cysteine peptide change” value in data set [1] was determined as 0. In addition, the “efficacy of lysine peptide change” value in data set [3] was -4.43 ± 7.7. Besides, the “efficacy of IL-8 induction” value in data set [5] worked out at 0. Moreover, the “efficacy of ARE luciferase induction” value in data set [6] is 7.32 ± 10.

Turning to `NNc1nncc2ccccc12` [Hydralazine hydrochloride], the “AC50 of Nrf2/ARE luciferase induction” value in data set [8] came out at 27.8 µM. For the same molecule, the “efficacy of cysteine peptide change” value in data set [1] is -16.5 ± 11. Also, the “cytotoxicity AC50” value in data set [2] was 63.9 ± 12 µM. Also, in data set [3], the “efficacy of lysine peptide change” value is -22.2 ± 1.9. For the same molecule, in data set [5], the “efficacy of IL-8 induction” value was found to be 35.5 ± 3.4. In addition, the “efficacy of ARE luciferase induction” value in data set [6] turned out to be 50.9 ± 25.

Turning to `CCC[CH2][Sn]([Cl])([CH2]CCC)[CH2]CCC` [Tributyltin chloride], the “AC50 of Nrf2/ARE luciferase induction” value in data set [8] was determined as 8.63 µM. The “efficacy of cysteine peptide change” value in data set [1] was 127 ± 65. The “cytotoxicity AC50” value in data set [2] is 8.27 ± 0.56 µM. Further, in data set [3], the “efficacy of lysine peptide change” value came out at 25.2 ± 7.1. In data set [5], the “efficacy of IL-8 induction” value was found to be 50.9 ± 8. The “AC50 of IL-8 secretion induction” value in data set [7] turned out to be 16.9 µM. Besides, the “efficacy of ARE luciferase induction” value in data set [6] was determined as 475 ± 98.

For `Cn1c(=O)c2c(ncn2C)n(C)c1=O` [Caffeine], in data set [1], the “efficacy of cysteine peptide change” value is -10.6 ± 5.6. In addition, the “efficacy of lysine peptide change” value in data set [3] was -8.46 ± 8.2. Besides, the “efficacy of IL-8 induction” value in data set [5] was found to be 2.79 ± 4.8. In addition, in data set [6], the “efficacy of ARE luciferase induction” value was 39.2 ± 43.

Turning to `Nc1cccc2ccccc12` [1-Naphthylamine], the “efficacy of cysteine peptide change” value in data set [1] is -74.3 ± 4.4. Further, the “cytotoxicity AC50” value in data set [2] was 48.3 ± 3.1 µM. For the same molecule, the “efficacy of lysine peptide change” value in data set [3] was -7.53 ± 14. The molecule also returned an AC50 in data set [4] of 1.13 ± 0.13 µM. In addition, in data set [5], the “efficacy of IL-8 induction” value stood at 6.81 ± 6.4. The “efficacy of ARE luciferase induction” value in data set [6] was found to be 7.83 ± 14.
